Laboratory results as given in patent US10144730B2, “Inhibitors of c-Jun-N-terminal kinase (JNK)” (Dana-Farber Cancer Institute, Inc., priority 2011, dated 2018).

Amino acid sequences for entries named in this document (tags omitted). A change or cut given only in a name is not applied to a line headed by its entry.
UniProt P45983: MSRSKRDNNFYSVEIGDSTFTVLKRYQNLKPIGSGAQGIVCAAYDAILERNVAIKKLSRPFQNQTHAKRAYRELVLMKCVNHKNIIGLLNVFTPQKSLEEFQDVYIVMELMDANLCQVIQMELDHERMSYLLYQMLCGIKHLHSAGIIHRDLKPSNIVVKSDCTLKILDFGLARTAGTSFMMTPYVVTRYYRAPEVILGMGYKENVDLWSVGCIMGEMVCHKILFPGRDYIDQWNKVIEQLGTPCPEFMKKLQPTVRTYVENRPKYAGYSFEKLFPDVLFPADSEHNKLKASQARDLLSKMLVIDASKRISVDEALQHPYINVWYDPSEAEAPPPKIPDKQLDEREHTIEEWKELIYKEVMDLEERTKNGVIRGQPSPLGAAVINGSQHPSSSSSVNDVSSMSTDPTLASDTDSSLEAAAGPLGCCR

Target: JNK1 (Homo sapiens, UniProt P45983)
Test: Biochemical JNK1 kinase inhibition (Z'-lyte format)
Conditions: Table 2

Cc1cc(NC(=O)c2cccc(NC(=O)/C=C/CN(C)C)c2)ccc1Nc1nccc(-c2cccnc2)n1 [JNK-IN-8]
IC50: 4.67 nM
